Test results: US11447486B2, “2-amino-benzimidazole derivatives and their use as 5-lipoxygenase and/or prostaglandin E synthase inhibitors” (INSTITUT PASTEUR KOREA, priority 2014, dated 2022)

Amino acid sequences for entries named in this document (tags omitted).
UniProt P09917, whole entry: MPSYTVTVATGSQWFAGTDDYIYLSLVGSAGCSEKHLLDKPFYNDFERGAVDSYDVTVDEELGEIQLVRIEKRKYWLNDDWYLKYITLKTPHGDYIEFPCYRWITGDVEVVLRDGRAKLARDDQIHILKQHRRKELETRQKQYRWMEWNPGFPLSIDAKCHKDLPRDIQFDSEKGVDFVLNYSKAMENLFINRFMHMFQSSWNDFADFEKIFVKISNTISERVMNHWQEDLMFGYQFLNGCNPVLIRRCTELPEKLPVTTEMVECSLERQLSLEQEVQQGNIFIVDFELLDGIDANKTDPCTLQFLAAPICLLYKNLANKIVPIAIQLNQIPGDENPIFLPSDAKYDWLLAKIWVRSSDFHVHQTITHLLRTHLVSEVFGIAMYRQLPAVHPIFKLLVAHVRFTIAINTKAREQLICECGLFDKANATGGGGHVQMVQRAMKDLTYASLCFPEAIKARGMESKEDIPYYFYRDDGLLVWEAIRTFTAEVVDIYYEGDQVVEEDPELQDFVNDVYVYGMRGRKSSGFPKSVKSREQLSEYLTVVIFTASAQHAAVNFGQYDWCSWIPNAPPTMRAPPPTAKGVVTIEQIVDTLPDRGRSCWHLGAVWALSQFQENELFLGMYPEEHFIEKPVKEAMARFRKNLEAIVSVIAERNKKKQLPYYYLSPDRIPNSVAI

How the values were obtained:
human 5-LOX = human 5-LOX (Homo sapiens, UniProt P09917); test: 5-LOX enzyme activity, fluorescence method (5-HPETE, H2DCFDA); conditions: read-out: 5-LO (IC50)
[1] = test system: Rat basophilic leukemia (RBL) cells; test: LTB4 secretion assay in RBL (rat basophilic leukemia cells); conditions: read-out: RBL (EC50)
Experimental: Rat basophilic leukemia (RBL) cells (ATCC, Cat #CRL-2256) were maintained in EMEM (ATCC, Cat #30-2003) supplemented with 15% FBS. The day before RBL assay, cells were seeded at a concentration of 2×10^4 cells per well in 96-well plates. The media was replaced with 100 ul of EMEM supplemented with 0.5% FBS and compounds in dose response(5 nM to 100 uM) were added. After 15 min of pre-incubation at 37° C., arachidonic acid and calcium ionophore (A23187) were added to give a final concentration of 2.5 uM and 5 uM, respectively. After a further 10 min incubation at 37° C., culture supernatant was transferred and quantification of LTB4 was done with a Leukotriene B4 EIA kit (Cayman, Cat #520111) as instructed.

| SMILES | IC50 (human 5-LOX) [µM] | EC50 [1] [µM] |
| --- | --- | --- |
| CC(C)(Nc1ccc2[nH]c(N3CCC(Oc4ccc(F)cc4)CC3)nc2c1)C(=O)O | < 1 | > 20 |
| COc1ccc2cc(CNc3nc4ccc(N)cc4[nH]3)ccc2n1 | < 1 | < 10 |
